Source: PubChem BioAssay (NCI)
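Results reflect a 48-hour exposure of cells in 96-well plates to compound at five concentrations. GI50: concentration for 50% inhibition of growth. TGI: concentration producing complete growth inhibition.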

Legend:
Assay in all cases: NCI-60 cell line screen, 48 h
786-0 renal = system: 786-0 renal
A549 NSCLC = system: A549 NSCLC
BT-549 breast = system: BT-549 breast
CAKI-1 renal = system: CAKI-1 renal
CCRF-CEM leukemia = system: CCRF-CEM leukemia
COLO 205 colon = system: COLO 205 colon
DU-145 prostate = system: DU-145 prostate
EKVX NSCLC = system: EKVX NSCLC
HCC-2998 colon = system: HCC-2998 colon
HCT-116 colon = system: HCT-116 colon
HCT-15 colon = system: HCT-15 colon
HL-60(TB) leukemia = system: HL-60(TB) leukemia
HOP-62 NSCLC = system: HOP-62 NSCLC
HOP-92 NSCLC = system: HOP-92 NSCLC
HS 578T breast = system: HS 578T breast
HT29 colon = system: HT29 colon
IGROV1 ovarian = system: IGROV1 ovarian
K-562 leukemia = system: K-562 leukemia
KM12 colon = system: KM12 colon
LOX IMVI melanoma = system: LOX IMVI melanoma
M14 melanoma = system: M14 melanoma
MALME-3M melanoma = system: MALME-3M melanoma
MCF7 breast = system: MCF7 breast
MDA-MB-231 breast = system: MDA-MB-231 breast
MDA-MB-435 = system: MDA-MB-435
MDA-N = system: MDA-N
MOLT-4 leukemia = system: MOLT-4 leukemia
NCI-H226 lung = system: NCI-H226 lung
NCI-H23 lung = system: NCI-H23 lung
NCI/ADR-RES ovarian = system: NCI/ADR-RES ovarian
OVCAR-3 ovarian = system: OVCAR-3 ovarian
OVCAR-4 ovarian = system: OVCAR-4 ovarian
OVCAR-5 ovarian = system: OVCAR-5 ovarian
OVCAR-8 ovarian = system: OVCAR-8 ovarian
PC-3 prostate = system: PC-3 prostate
RPMI-8226 leukemia = system: RPMI-8226 leukemia
RXF 393 renal = system: RXF 393 renal
SF-268 CNS = system: SF-268 CNS
SF-295 CNS = system: SF-295 CNS
SF-539 CNS = system: SF-539 CNS
SK-MEL-2 melanoma = system: SK-MEL-2 melanoma
SK-MEL-28 melanoma = system: SK-MEL-28 melanoma
SK-MEL-5 melanoma = system: SK-MEL-5 melanoma
SK-OV-3 ovarian = system: SK-OV-3 ovarian
SN12C renal = system: SN12C renal
SNB-19 CNS = system: SNB-19 CNS
SNB-75 CNS = system: SNB-75 CNS
SR leukemia = system: SR leukemia
SW-620 colon = system: SW-620 colon
T-47D breast = system: T-47D breast
TK-10 renal = system: TK-10 renal
U251 CNS = system: U251 CNS
UACC-257 melanoma = system: UACC-257 melanoma
UACC-62 melanoma = system: UACC-62 melanoma
UO-31 renal = system: UO-31 renal

## O=C(OCC12COP(=O)(OC1)OC2)C(C(F)(F)F)C(F)(F)F
786-0 renal
  GI50: > 100 µM
  TGI: > 100 µM
A549 NSCLC
  GI50: > 100 µM
  TGI: > 100 µM
BT-549 breast
  GI50: > 100 µM
  TGI: > 100 µM
CAKI-1 renal
  GI50: > 100 µM
  TGI: > 100 µM
CCRF-CEM leukemia
  GI50: > 100 µM
  TGI: > 100 µM
COLO 205 colon
  GI50: > 100 µM
  TGI: > 100 µM
DU-145 prostate
  GI50: > 100 µM
  TGI: > 100 µM
EKVX NSCLC
  GI50: > 100 µM
  TGI: > 100 µM
HCC-2998 colon
  GI50: > 100 µM
  TGI: > 100 µM
HCT-116 colon
  GI50: > 100 µM
  TGI: > 100 µM
HCT-15 colon
  GI50: > 100 µM
  TGI: > 100 µM
HL-60(TB) leukemia
  GI50: > 100 µM
  TGI: > 100 µM
HOP-62 NSCLC
  GI50: > 100 µM
  TGI: > 100 µM
HOP-92 NSCLC
  GI50: > 100 µM
  TGI: > 100 µM
HS 578T breast
  GI50: > 100 µM
  TGI: > 100 µM
HT29 colon
  GI50: > 100 µM
  TGI: > 100 µM
IGROV1 ovarian
  GI50: > 100 µM
  TGI: > 100 µM
K-562 leukemia
  GI50: > 100 µM
  TGI: > 100 µM
KM12 colon
  GI50: > 100 µM
  TGI: > 100 µM
LOX IMVI melanoma
  GI50: > 100 µM
  TGI: > 100 µM
M14 melanoma
  GI50: > 100 µM
  TGI: > 100 µM
MALME-3M melanoma
  GI50: > 100 µM
  TGI: > 100 µM
MCF7 breast
  GI50: > 100 µM
  TGI: > 100 µM
MDA-MB-231 breast
  GI50: > 100 µM
  TGI: > 100 µM
MDA-MB-435
  GI50: > 100 µM
  TGI: > 100 µM
MDA-N
  GI50: > 100 µM
  TGI: > 100 µM
MOLT-4 leukemia
  GI50: > 100 µM
  TGI: > 100 µM
NCI-H226 lung
  GI50: 43.2 µM
  TGI: > 100 µM
NCI-H23 lung
  GI50: > 100 µM
  TGI: > 100 µM
NCI/ADR-RES ovarian
  GI50: > 100 µM
  TGI: > 100 µM
OVCAR-3 ovarian
  GI50: > 100 µM
  TGI: > 100 µM
OVCAR-4 ovarian
  GI50: > 100 µM
  TGI: > 100 µM
OVCAR-5 ovarian
  GI50: > 100 µM
  TGI: > 100 µM
OVCAR-8 ovarian
  GI50: > 100 µM
  TGI: > 100 µM
PC-3 prostate
  GI50: > 100 µM
  TGI: > 100 µM
RPMI-8226 leukemia
  GI50: > 100 µM
  TGI: > 100 µM
RXF 393 renal
  GI50: > 100 µM
  TGI: > 100 µM
SF-268 CNS
  GI50: > 100 µM
  TGI: > 100 µM
SF-295 CNS
  GI50: > 100 µM
  TGI: > 100 µM
SF-539 CNS
  GI50: > 100 µM
  TGI: > 100 µM
SK-MEL-2 melanoma
  GI50: > 100 µM
  TGI: > 100 µM
SK-MEL-28 melanoma
  GI50: > 100 µM
  TGI: > 100 µM
SK-MEL-5 melanoma
  GI50: > 100 µM
  TGI: > 100 µM
SK-OV-3 ovarian
  GI50: > 100 µM
  TGI: > 100 µM
SN12C renal
  GI50: > 100 µM
  TGI: > 100 µM
SNB-19 CNS
  GI50: > 100 µM
  TGI: > 100 µM
SNB-75 CNS
  GI50: > 100 µM
  TGI: > 100 µM
SR leukemia
  GI50: > 100 µM
  TGI: > 100 µM
SW-620 colon
  GI50: > 100 µM
  TGI: > 100 µM
T-47D breast
  GI50: > 100 µM
  TGI: > 100 µM
TK-10 renal
  GI50: > 100 µM
  TGI: > 100 µM
U251 CNS
  GI50: > 100 µM
  TGI: > 100 µM
UACC-257 melanoma
  GI50: > 100 µM
  TGI: > 100 µM
UACC-62 melanoma
  GI50: > 100 µM
  TGI: > 100 µM
UO-31 renal
  GI50: 80.2 µM
  TGI: > 100 µM
